The test concerns beta-defensin 2 (human β-defensin 2, hBD-2). In words: beta-defensin 2 synthesis ELISA in cortisol-treated HaCaT cells. In kind it is cell-based. The protocol:
First, HaCaT, which is a human epidermal cell of the outermost layer among skin cells, was cultured using Dulbecco's Modified Eagle's Media (DMEM; Gibco, USA) mixed with 10% fetal bovine serum (FBS; Gibco, USA) and 1% antibiotic antimycotic (Gibco, USA) in a 24-well plate under conditions of 37° C. and 5% CO2. […] […] After 24 hours, the cells were treated with curcumin, taurine, and acetyl hexapeptide-8 at experimental concentrations, and cultured for 24 hours. At this time, curcumin, taurine, and acetyl hexapeptide-8 were treated alone, and the concentration of curcumin was fixed at 0.1 ppm and 1 ppm, and then taurine and acetyl hexapeptide-8 were treated in combination of concentrations, and cultured for 24 hours. 24 hours after treatment with each sample, ELISA was performed to quantify the amount of beta-defensin 2 (human β-defensin 2, hBD-2) protein synthesis. ELISA was performed using the HUMAN BETA DEFENSIN 2 ELISA kit (ALPHA DIAGNOSTIC, USA) and using the cell culture medium according to the kit's manual, and the final protein amount was calculated by measuring absorbance at 400 nm. […] At this time, when the amount thereof increased compared to the decrease due to cortisol, it was interpreted that the synthesis of beta-defensin 2 was increased by the sample. In addition, the synergistic effect between respective active substances that enhance beta-defensin 2 which had been reduced by cortisol was predicted through the Colby formula, and when the actual measured value was greater than the predicted value, it was determined that there was the synergistic effect.
Background: In an ELISA, binding on a coated surface is turned into a signal by an enzyme label.

Consider acetyl hexapeptide-8, for which the “Production amount of beta-defensin 2 (%)” value is reported as 98.75% (Table 4: each substance at 1 ppm, alone or three cotreated, Cortisol (5 μM) = 100); 98.45% (single treatment 0.01 ppm, 24 h, HaCaT, cortisol group = 100); 101.37% (single treatment 0.1 ppm, 24 h, HaCaT, cortisol group = 100); 98.75% (single treatment 1 ppm, 24 h, HaCaT, cortisol group = 100); 110.12% (single treatment 5 ppm, 24 h, HaCaT, cortisol group = 100); 92.66% (single treatment 10 ppm, 24 h, HaCaT, cortisol group = 100). The “enhancement efficacy (beta-defensin 2 synthesis)” value (single treatment at 0.1 ppm) is “confirmed” and the “enhancement efficacy (beta-defensin 2 synthesis)” value (single treatment at 5 ppm) is “confirmed”.

The values above are taken from patent US20240225973A1, “COSMETIC COMPOSITION FOR IMPROVING SENSITIVE SKIN” (LG HOUSEHOLD & HEALTH CARE LTD., priority 2023, published 2024).
